# Test system: cell membrane
# Test: Fusion quality of R groups bound to amphipathic molecules B in the fusion mixture
substance,measurement,value
"1,2-dioleoyl-sn-glycero-3-phosphoethanolamine-N-(carboxyfluorescein) (ammonium salt)",Fusion quality,3
